In patent US20250269051A1 (ALMAC DISCOVERY, published 2025):

Biological target: T1, human ROR1 on the cell surface (human, UniProt Q01973)
T1 construct: whole, on cells; also called cell-surface ROR1; ROR1 on A549, PA-1, Kasumi-2, MHH-ES1, HEK293.hROR1 cells
Assay: flow cytometry on A549 (ROR1 hi) cells, YEL-B-HLog median fluorescence, bars at 12 concentrations up to 122 nM

EC50 (read off the curve): ~2 nM
B1: P3A1 hFc (S239C) MA-PEG4-vc-PAB-EDA-PNU159682 (Fc fusion, name in EU numbering)
chain: TRVDQTPRTATKETGESLTINCVLTDTSYGLYSTSWFRKNPGTTDWERMSIGGRYVESVNKGAKSFSLRIKDLTVADSATYYCKAREARHPWLRQWYDGAGTVLTVNGGGGSGGGGSGGGGS[in this place human IgG1 Fc with changes]
modifications: MA-PEG4-vc-PAB-EDA-PNU159682 on the engineered Cys S239C (EU numbering)
notes: also called P3A1-hFc-PNU
